Target: PHD1 enzyme (residues 1-407) (Homo sapiens (Human), UniProt Q96KS0)
Experiment: PHD1 Enzyme Assay (UPLC-MS detection of hydroxylated peptide product)
Assay type: biochemical
Settings: 20 nM, 60 min pre-incubation at room temperature

Amino acid sequences for entries named in this document (tags omitted).
UniProt Q96KS0, whole entry: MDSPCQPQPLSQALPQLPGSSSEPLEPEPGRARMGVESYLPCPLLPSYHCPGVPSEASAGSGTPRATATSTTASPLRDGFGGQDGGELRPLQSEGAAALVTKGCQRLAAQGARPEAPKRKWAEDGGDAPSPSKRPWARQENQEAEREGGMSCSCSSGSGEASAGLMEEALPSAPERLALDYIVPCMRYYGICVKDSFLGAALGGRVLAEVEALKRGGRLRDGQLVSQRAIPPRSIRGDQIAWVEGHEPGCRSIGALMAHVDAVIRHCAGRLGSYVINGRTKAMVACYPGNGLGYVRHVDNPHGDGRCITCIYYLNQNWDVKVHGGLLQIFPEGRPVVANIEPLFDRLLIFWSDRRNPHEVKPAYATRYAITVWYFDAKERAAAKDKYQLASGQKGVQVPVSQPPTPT

In order of falling IC50:
1. N#Cc1ccc(-c2cc(CNCC3CCOC3)cc3ncnn23)cc1 (stereo not drawn) [Example 193, 4-(7-{[(oxolan-3-ylmethyl)amino]methyl}-[1,2,4]triazolo[1,5-a]pyridin-5-yl)benzonitrile]  4.8 µM
2. N#Cc1ccc(-c2nccc3ncnn23)cc1 [Example 16, 4-{[1,2,4]triazolo[1,5-c]pyrimidin-5-yl}benzonitrile]  3.94 µM
3. COCc1cc(-c2ccc(C#N)cc2)n2ncnc2c1 [Example 224, 4-[7-(Methoxymethyl)-[1,2,4]triazolo[1,5-a]pyridin-5-yl]benzonitrile]  3.09 µM
4. CC1CCC(C)N1c1cc(-c2ccc(C#N)cc2)n2ncnc2n1 (stereo not drawn) [Example 91, 4-[5-(2,5-dimethylpyrrolidin-1-yl)-[1,2,4]triazolo[1,5-a]pyrimidin-7-yl]benzonitrile]  2.45 µM
5. N#Cc1ccc(-c2cc(NCCN3CCCC3)nc3ncnn23)cc1 [Example 86, 4-(5-{[2-(pyrrolidin-1-yl)ethyl]amino}-[1,2,4]triazolo[1,5-a]pyrimidin-7-yl)benzonitrile]  2.11 µM
6. Cc1nc(C#N)ccc1-c1cc(Cl)cc2ncnn12 [Example 20, 5-{7-chloro-[1,2,4]triazolo[1,5-a]pyridin-5-yl}-6-methylpyridine-2-carbonitrile]  1.96 µM
7. N#Cc1ccc(-c2cc(C(=O)N3CCCC3)cc3ncnn23)cc1 [Example 43, 4-[7-(pyrrolidine-1-carbonyl)-[1,2,4]triazolo[1,5-a]pyridin-5-yl]benzonitrile]  1.84 µM
8. COCCNC(=O)c1cc(-c2ccc(C#N)cc2)n2ncnc2c1 [Example 44, 5-(4-cyanophenyl)-N-(2-methoxyethyl)-[1,2,4]triazolo[1,5-a]pyridine-7-carboxamide]  1.76 µM
9. COc1cccc(CNCc2cc(-c3ccc(C#N)cc3)n3ncnc3c2)c1 [Example 190, 4-[7-({[(3-methoxyphenyl)methyl]amino}methyl)-[1,2,4]triazolo[1,5-a]pyridin-5-yl]benzonitrile]  1.7 µM
10. Cc1cc(C#N)c(F)cc1-c1cc(Cl)cc2ncnn12 [Example 235, 4-{7-Chloro-[1,2,4]triazolo[1,5-a]pyridin-5-yl}-2-fluoro-5-methylbenzonitrile]  1.69 µM
11. CC(=O)NCc1cc(-c2ccc(C#N)cc2)n2ncnc2c1 [Example 225, N-{[5-(4-Cyanophenyl)-[1,2,4]triazolo[1,5-a]pyridin-7-yl]methyl}acetamide]  1.65 µM
12. N#Cc1ccc(-c2ccnc3ncnn23)c(Cl)c1 [Example 205, 3-chloro-4-{[1,2,4]triazolo[1,5-a]pyrimidin-7-yl}benzonitrile]  0.97 µM
13. N#Cc1ccc(-c2cc(N3CCCC(N4CCCC4)C3)nc3ncnn23)cc1 (stereo not drawn) [Example 76, 4-{5-[3-(pyrrolidin-1-yl)piperidin-1-yl]-[1,2,4]triazolo[1,5-a]pyrimidin-7-yl}benzonitrile]  0.969 µM
14. CC1(C)CCN(c2cc(-c3ccc(C#N)cc3)n3ncnc3n2)C1 [Example 92, 4-[5-(3,3-dimethylpyrrolidin-1-yl)-[1,2,4]triazolo[1,5-a]pyrimidin-7-yl]benzonitrile]  0.792 µM
15. Cc1ncc(NC(=O)c2cc(-c3ccc(C#N)cc3)n3ncnc3c2)cn1 [Example 54, 5-(4-cyanophenyl)-N-(2-methylpyrimidin-5-yl)-[1,2,4]triazolo[1,5-a]pyridine-7-carboxamide]  0.73 µM
16. CC1(C(=O)Nc2cc(-c3ccc(C#N)c(F)c3)n3ncnc3c2)CCOCC1 [Example 165, N-[5-(4-cyano-3-fluorophenyl)-[1,2,4]triazolo[1,5-a]pyridin-7-yl]-4-methyloxane-4-carboxamide]  0.65 µM
17. CC1(C(=O)Nc2cc(-c3ccc(C#N)c(F)c3)n3ncnc3c2)COC1 [Example 166, N-[5-(4-cyano-3-fluorophenyl)-[1,2,4]triazolo[1,5-a]pyridin-7-yl]-3-methyloxetane-3-carboxamide]  0.63 µM
18. COc1cccc(NC(=O)c2cc(-c3ccc(C#N)cc3)n3ncnc3c2)c1 [Example 47, 5-(4-cyanophenyl)-N-(3-methoxyphenyl)-[1,2,4]triazolo[1,5-a]pyridine-7-carboxamide]  0.47 µM
19. Cc1cc(C#N)ccc1-c1cc(NC(=O)C(C)(C)O)cc2ncnn12 [Example 240, N-[5-(4-Cyano-2-methylphenyl)-[1,2,4]triazolo[1,5-a]pyridin-7-yl]-2-hydroxy-2-methylpropanamide]  0.46 µM
20. N#Cc1ccc(-c2c(F)c(N)cc3ncnn23)cc1 [Example 181, 4-{7-Amino-6-fluoro-[1,2,4]triazolo[1,5-a]pyridin-5-yl}benzonitrile]  0.325 µM
21. COC(=O)c1cc(-c2ccc(C#N)cc2)n2ncnc2c1 [Example 40, Methyl 5-(4-cyanophenyl)-[1,2,4]triazolo[1,5-a]pyridine-7-carboxylate]  0.323 µM
22. N#Cc1ccc(-c2cc(N3CCOC3=O)cc3ncnn23)cc1F [Example 135, 2-fluoro-4-[7-(2-oxo-1,3-oxazolidin-3-yl)-[1,2,4]triazolo[1,5-a]pyridin-5-yl]benzonitrile]  0.24 µM
23. Cc1nc(C#N)ccc1-c1cc(NC(=O)C2CC2)cc2ncnn12 [Example 253, N-[5-(6-Cyano-2-methylpyridin-3-yl)-[1,2,4]triazolo[1,5-a]pyridin-7-yl]cyclopropanecarboxamide]  0.216 µM
24. N#Cc1ccc(-c2cc(C(=O)NCCc3cccc(Cl)c3)cc3ncnn23)cc1 [Example 48, N-[2-(3-chlorophenyl)ethyl]-5-(4-cyanophenyl)-[1,2,4]triazolo[1,5-a]pyridine-7-carboxamide]  0.206 µM
25. N#Cc1ccc(-c2cc(OCC3CCCO3)cc3ncnn23)cc1F (stereo not drawn) [Example 131]  0.168 µM
26. CC(C)(O)CNc1cc(-c2ccc(C#N)cc2)n2ncnc2c1 [Example 110, 4-{7-[(2-hydroxy-2-methylpropyl)amino]-[1,2,4]triazolo[1,5-a]pyridin-5-yl}benzonitrile]  0.166 µM
27. CN(CC1CC1)c1cc(-c2ccc(C#N)cc2)n2ncnc2n1 [Example 85, 4-{5-[(cyclopropylmethyl)(methyl)amino]-[1,2,4]triazolo[1,5-a]pyrimidin-7-yl}benzonitrile]  0.164 µM
28. CC(=O)Nc1cc(-c2ccc(C#N)nc2C)n2ncnc2c1 [Example 241, N-[5-(6-Cyano-2-methylpyridin-3-yl)-[1,2,4]triazolo[1,5-a]pyridin-7-yl]acetamide]  0.152 µM
29. COC1CN(c2cc(-c3ccc(C#N)cc3)n3ncnc3c2)C1 [Example 140, 4-[7-(3-methoxyazetidin-1-yl)-[1,2,4]triazolo[1,5-a]pyridin-5-yl]benzonitrile]  0.151 µM
30. Cc1cc(C#N)ccc1-c1cc(NC(=O)CC(F)(F)F)cc2ncnn12 [Example 175, N-[5-(4-cyano-2-methylphenyl)-[1,2,4]triazolo[1,5-a]pyridin-7-yl]-3,3,3-trifluoropropanamide]  0.143 µM
31. N#Cc1ccc(-c2cc(NC(=O)C3CCC3)cc3ncnn23)cc1F [Example 155, N-[5-(4-cyano-3-fluorophenyl)-[1,2,4]triazolo[1,5-a]pyridin-7-yl]cyclobutanecarboxamide]  0.13 µM
32. N#Cc1ccc(-c2cc(NS(=O)(=O)C3CC3)cc3ncnn23)cc1F [Example 148, N-[5-(4-Cyano-3-fluorophenyl)-[1,2,4]triazolo[1,5-a]pyridin-7-yl]cyclopropanesulfonamide]  0.126 µM
33. CC(C)CC1CCN(c2cc(-c3ccc(C#N)cc3)n3ncnc3n2)C1 (stereo not drawn) [Example 97, 4-{5-[3-(2-methylpropyl)pyrrolidin-1-yl]-[1,2,4]triazolo[1,5-a]pyrimidin-7-yl}benzonitrile]  0.115 µM
34. Cc1cc(C#N)c(F)cc1-c1cc(N)cc2ncnn12 [Example 220, 4-{7-Amino-[1,2,4]triazolo[1,5-a]pyridin-5-yl}-2-fluoro-5-methylbenzonitrile]  0.073 µM
35. N#Cc1ccc(-c2cc(OCC3CC3)cc3ncnn23)cc1 [Example 118, 4-[7-(cyclopropylmethoxy)-[1,2,4]triazolo[1,5-a]pyridin-5-yl]benzonitrile]  0.054 µM
36. CN1CCC(OC(=O)Nc2cc(-c3ccc(C#N)c(F)c3)n3ncnc3c2)CC1 [Example 197, 1-methylpiperidin-4-yl N-[5-(4-cyano-3-fluorophenyl)-[1,2,4]triazolo[1,5-a]pyridin-7-yl]carbamate]  0.053 µM
37. N#Cc1ccc(-c2cc(NCCC(F)(F)F)cc3ncnn23)cc1F [Example 126, 2-fluoro-4-{7-[(3,3,3-trifluoropropyl)-amino][1,2,4]triazolo-[1,5-a]pyridin-5-yl}benzonitrile]  0.053 µM
38. CC(C)(C)OC(=O)Nc1cc(-c2ccc(C#N)c(F)c2)n2ncnc2c1 [Example 124, tert-butyl N-[5-(4-cyano-3-fluorophenyl)-[1,2,4]triazolo[1,5-a]pyridin-7-yl]carbamate]  0.049 µM
39. COCCC(=O)Nc1cc(-c2ccc(C#N)cc2)n2ncnc2c1 [Example 151, N-[5-(4-cyanophenyl)-[1,2,4]triazolo[1,5-a]pyridin-7-yl]-3-methoxypropanamide]  0.047 µM
40. N#Cc1ccc(-c2cc(N)cc3ncnn23)c(F)c1 [Example 210, 4-{7-Amino-[1,2,4]triazolo[1,5-a]pyridin-5-yl}-3-fluorobenzonitrile]  0.036 µM
41. COCCNc1cc(-c2ccc(C#N)cc2)n2ncnc2c1 [Example 102]  0.034 µM
42. N#Cc1ccc(-c2cc(O)cc3ncnn23)cc1F [Example 219, 2-Fluoro-4-{7-hydroxy-[1,2,4]triazolo[1,5-a]pyridin-5-yl}benzonitrile]  0.03 µM
43. N#Cc1ccc(-c2cc(NCC3CCOC3)cc3ncnn23)cc1 (stereo not drawn) [Example 105, 4-{7-[(oxolan-3-ylmethyl)amino]-[1,2,4]triazolo[1,5-a]pyridin-5-yl}benzonitrile]  0.025 µM
44. N#Cc1ccc(-c2cc(NCC3CC3)cc3ncnn23)cc1 [Example 101, 4-{7-[(cyclopropylmethyl)amino]-[1,2,4]triazolo[1,5-a]pyridin-5-yl}benzonitrile]  0.009 µM
45. N#Cc1ccc(-c2cc(NCc3ccc(F)cc3)cc3ncnn23)cc1 [Example 117, 4-(7-{[(4-fluorophenyl)methyl]amino}-[1,2,4]triazolo[1,5-a]pyridin-5-yl)benzonitrile]  0.005 µM
